From PubChem BioAssay AID603 (National Center for Advancing Translational Sciences (NCATS), 2007) come the findings set out here.

Only a part is listed here, and it is no random draw. Some results for these compounds are left out of this collection, so the calls shown say nothing about other tests. Active and inactive are the calls of the source. Calls come from the whole dose curve; as a rule, active = well fitted curve in the direction sought with a large enough effect; inconclusive = small, poorly fitted or top-dose-only effect; inactive = flat fitted curve, though single readings scatter.
% is set by controls: 0 for no effect and ±100 for the full control effect.

The test system of this experiment is DNA polymerase III holoenzyme (E. coli). Description: qHTS Assay for Inhibitors of DNA Polymerase III Holoenzyme System. Conditions: reconstituted DNA polymerase III holoenzyme replication, biochemical; at 11.4 µM (top of the series) unless noted. As for the experimental part:
NIH Molecular Libraries Screening Centers Network [MLSCN]
NIH Chemical Genomics Center [NCGC]
Assay Provider: Charles McHenry, University of Colorado
E. coli DNA polymerase III holoenzyme complex was assayed for DNA production by fluorescent detection of the double-stranded DNA product with PicoGreen dye. The holoenzyme complex was reconstituted from the following purified protein components: DNA Polymerase III, beta subunit processivity factor, SSB single-stranded DNA binding protein, and Primase. Single-stranded, circular M13Gori was used as a substrate with dNTPs and NTPs also supplied to the substrate reagent. Compounds from the NCGC collection were incubated with the holoenzyme mixture for 15 min at room temperature to allow binding to occur, and then the reaction was started by the addition of substrate. After 30 min incubation at room temperature, PicoGreen solution containing EDTA was added to stop the reaction and to visualize the double-stranded DNA produced. Reaction progress was measured in a ViewLux CCD imager in fluorescence intensity mode by using 480 nm excitation and 540 nm emission filter set.
NCGC Assay Protocol Summary:
Buffer. 50 mM Hepes-KOH, pH 7.5, 5 % Glycerol, 0.02% NP40, 30 mM potassium;
glutamate, 1.5 mM Magnesium Acetate, 16 uM TCEP.
Buffer in columns 3 and 4 as negative control (no enzyme).
Substrate solution: 5 uM each dATP, dGTP, dCTP and TTP, 50 uM each GTP, CTP, UTP and 200 uM ATP, 1.4 nM M13gori (final concentrations).
Enzyme: 154 nM SSB, 2 nM Primase, 1 nM Beta, 0.35 nM Pol III (final concentrations).
PicoGreen/EDTA: 10 mM Tris-HCl, 10 mM EDTA, 5 uM PicoGreen (final concentrations).
Control titration: ChemBridge 5805060 (from 10 mM, then 1:2, in duplicate) was pin-transferred to upper half of column 2.
Three uL of holoenzyme mixture were dispensed to 1536-well Greiner black solid bottom plates. Compounds and controls (23 nL) were transferred via Kalypsys PinTool. The plates were incubated for 15 min at room temperature, and then 1 uL of substrate solution was added to start the reaction. After room temperature incubation for 35 minutes, 1 uL of PicoGreen solution was added to each well and the plates were read 480 nm excitation and 540 nm emission using ViewLux (Perkin-Elmer) High-throughput CCD imager and fluorescence protocol settings.
Keywords: NIH Roadmap, MLSCN, MLI, MLSMR, qHTS, NCGC, DNA Polymerase III, DNAPol3, DNAPoly3, DNA replication targets
In the case of `CN(C)c1cccc(C(=O)NCC2(N(C)C)CCCCC2)c1`, the activity change, negative = inhibition was inactive: 3.3% [at 57.1 µM].

Take `CN1CC[C@H](OC(=O)[C@](O)(c2ccccc2)C2CCCC2)C1`: the activity change, negative = inhibition was inactive: -7.7%.

Take `O=C(OC1CN2CCC1CC2)C(CO)(c1ccccc1)c1ccccc1` (stereo not given): the activity change, negative = inhibition is inactive: -1% [at 57.1 µM].

In the case of `CN1CCC[C@H](OC(=O)[C@](O)(c2ccccc2)C2CCCC2)C1`, the activity change, negative = inhibition is inactive: -11.2%.

Turning to `C=C(C)C#C[C@@](O)(C(=O)OC1CCN(C)CC1)c1ccccc1`, the activity change, negative = inhibition was inactive: -11%.
